Experimental findings from article doi:10.1101/2023.01.27.525918 (bioRxiv, 2023) are described below.

The target in test [1] is T1, Zinc finger-containing Ub peptidase 1 (ZUP1), full length, untagged (human, UniProt Q96AP4 1-578).
T1 sequence: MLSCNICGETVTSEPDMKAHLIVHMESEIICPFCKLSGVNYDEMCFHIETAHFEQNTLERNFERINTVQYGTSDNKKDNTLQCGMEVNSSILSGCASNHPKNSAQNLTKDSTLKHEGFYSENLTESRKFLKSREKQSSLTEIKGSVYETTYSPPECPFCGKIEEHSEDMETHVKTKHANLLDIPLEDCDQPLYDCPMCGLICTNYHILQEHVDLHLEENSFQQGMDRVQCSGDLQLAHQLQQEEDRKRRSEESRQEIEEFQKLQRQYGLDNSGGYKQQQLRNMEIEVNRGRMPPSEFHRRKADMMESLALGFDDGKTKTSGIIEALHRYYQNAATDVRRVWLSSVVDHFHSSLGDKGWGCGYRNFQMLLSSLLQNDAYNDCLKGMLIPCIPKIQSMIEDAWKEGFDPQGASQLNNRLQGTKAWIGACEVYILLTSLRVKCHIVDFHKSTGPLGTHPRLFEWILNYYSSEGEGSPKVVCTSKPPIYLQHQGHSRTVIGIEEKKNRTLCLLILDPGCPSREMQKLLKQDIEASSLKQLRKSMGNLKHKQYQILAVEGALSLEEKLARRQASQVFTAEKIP
As to the kind of experiment: cross-linking.

The target of test [2] is T2, ZUP1 C360A (catalytically inactive mutant of full length ZUP1) (human, UniProt Q96AP4 1-578, C360A).
T2 sequence: T1 sequence with C360A
As to the kind of experiment: cross-linking.

Numbering of substitutions follows the chain as printed.

B1: RPA32, untagged recombinant (natural protein)
chain: MWNSGFESYGSSSYGGAGGYTQSPGGFGSPAPSQAEKKSRARAQHIVPCTISQLLSATLVDEVFRIGNVEISQVTIVGIIRHAEKAPTNIVYKIDDMTAAPMDVRQWVDTDDTSSENTVVPPETYVKVAGHLRSFQNKKSLVAFKIMPLEDMNEFTTHILEVINAHMVLSKANSQPSAGRAPISNPGMSEAGNFGGNSFMPANGLTVAQNQVLNLIKACPRPEGLNFQDLKNQLKHMSVSSIKQAVDFLSNEGHIYSTVDDDHFKSTDAE
Take B1: the binding result in test [1] and in test [2] was “binds” each time.
